From ChEMBL document CHEMBL5634095, “Design, synthesis and evaluation of novel pyrimidinylaminothiophene derivatives as FGFR1 inhibitors against human glioblastoma multiforme” (Eur J Med Chem, 2023)
Active and inactive are the calls of the source.

What was measured:
U-87 MG [1] = assay: Antimigratory activity against human U-87 MG cells assessed as reduction in rate of cell migration at 5 uM incubated for 24 hrs by scratch wound healing assay; type: functional, cell-based; conditions: U-87MG ATCC
HUVEC = assay: Anti-angiogenesis activity in HUVEC assessed as reduction in cell adhesion; type: functional, cell-based; conditions: Homo sapiens
U-87 MG [2] = assay: Antitumor activity in human U-87 MG cells assessed as reduction in MMP-9 expression by Western blot analysis; type: functional, cell-based; conditions: U-87MG ATCC, dose 0.3-5 µM
U-87 MG [3] = assay: Antimigratory activity against human U-87 MG cells assessed as reduction in rate of cell migration at 0.1 to 5 uM incubated for 24 hrs by scratch wound healing assay; type: functional, cell-based; conditions: U-87MG ATCC, dose 0.1-5 µM
U-87 MG [4] = assay: Antitumor activity against human U-87 MG cells implanted in nude mouse assessed as reduction in tumor volume increase at 75 mg/kg/day, po administered 5 times a week for 4 weeks; type: functional, organism-based; conditions: U-87MG ATCC
U-87 MG [5] = assay: Antitumor activity in human U-87 MG cells assessed as reduction in MMP-2 expression by Western blot analysis; type: functional, cell-based; conditions: U-87MG ATCC, dose 0.3-5 µM
U-87 MG [6] = assay: Antitumor activity against human U-87 MG cells implanted in nude mouse assessed as reduction in MMP-2 expression at 50 to 75 mg/kg/day, po administered 5 times a week for 4 weeks by IHC analysis; type: functional, organism-based; conditions: U-87MG ATCC, dose 50-75 mg/kg/day
U-87 MG [7] = assay: Antitumor activity against human U-87 MG cells implanted in nude mouse assessed as reduction in MMP-9 expression at 50 to 75 mg/kg/day, po administered 5 times a week for 4 weeks by IHC analysis; type: functional, organism-based; conditions: U-87MG ATCC, dose 50-75 mg/kg/day

Measured: Activity

CNC(=O)c1ccsc1Nc1nc(Nc2ccc(N3CCC(N4CCOCC4)CC3)cc2)ncc1C(F)(F)F
active: U-87 MG [1] | HUVEC Dose-Dependent Effect | U-87 MG [2] Dose-Dependent Effect | U-87 MG [3] | U-87 MG [4] | U-87 MG [5] Dose-Dependent Effect | U-87 MG [6] | U-87 MG [7]
